{"source": "BindingDB's records for doi:10.1074/jbc.271.42.26315", "about": "(Bayer, 1996)", "molecular_target": "T1, Neuropeptide Y receptor type 5 (Rattus norvegicus, UniProt Q63634)", "T1 sequence (Q63634 whole entry)": "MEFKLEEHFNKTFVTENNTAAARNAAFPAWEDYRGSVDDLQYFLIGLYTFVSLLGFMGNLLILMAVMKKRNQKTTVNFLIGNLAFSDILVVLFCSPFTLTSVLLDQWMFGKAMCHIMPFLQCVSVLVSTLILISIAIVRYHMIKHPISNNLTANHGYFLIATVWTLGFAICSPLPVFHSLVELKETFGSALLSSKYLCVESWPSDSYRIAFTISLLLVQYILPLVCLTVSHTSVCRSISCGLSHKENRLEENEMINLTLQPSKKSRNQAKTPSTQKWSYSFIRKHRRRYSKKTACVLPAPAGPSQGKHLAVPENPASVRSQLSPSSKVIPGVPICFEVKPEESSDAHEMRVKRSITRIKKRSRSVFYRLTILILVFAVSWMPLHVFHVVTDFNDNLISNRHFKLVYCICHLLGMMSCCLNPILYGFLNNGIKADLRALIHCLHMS"}
{"smiles": "CC[C@H](C)[C@H](NC(=O)[C@H](Cc1ccc(O)cc1)NC(=O)[C@H](Cc1cnc[nH]1)NC(=O)[C@H](CCCN=C(N)N)NC(=O)[C@H](CC(C)C)NC(=O)[C@H](C)NC(=O)[C@H](CO)NC(=O)[C@H](Cc1ccc(O)cc1)NC(=O)[C@H](Cc1ccc(O)cc1)NC(=O)[C@H](CCCN=C(N)N)NC(=O)[C@H](C)NC(=O)[C@H](CCSC)NC(=O)[C@H](CC(=O)O)NC(=O)[C@H](CCC(=O)O)NC(=O)[C@H](C)NC(=O)[C@@H]1CCCN1)C(=O)N[C@@H](CC(N)=O)C(=O)N[C@@H](CC(C)C)C(=O)N[C@H](C(=O)N[C@H](C(=O)N[C@@H](CCCN=C(N)N)C(=O)N[C@@H](CCC(N)=O)C(=O)N[C@@H](CCCN=C(N)N)C(=O)N[C@@H](Cc1ccc(O)cc1)C(N)=O)[C@@H](C)O)[C@@H](C)CC", "note": "[NPY 13-36, human, rat]", "values": [{"measurement": "Ki", "value": 11, "unit": "nM"}]}
